# Data: patent US20150150960A1, “PROTECTION AGAINST DENGUE VIRUS AND PREVENTION OF SEVERE DENGUE DISEASE” (priority 2010, published 2015)
# Tests used:
# [1] = tested on: PBMC of DENV seropositive human donors; type: cell-based; details: ex vivo IFNγ ELISPOT
# DENV2 = type: in vivo, IFN-α/βR−/− mice; details: four dominant epitopes together
# [2] = allele B*4001, Sri Lankan donors
compound,measurement,setting,value
C[C@@H](O)[C@H](NC(=O)[C@@H](N)CC(=O)O)C(=O)N[C@H](C(=O)N1CCC[C@H]1C(=O)N[C@@H](Cc1ccccc1)C(=O)NCC(=O)N[C@@H](CCC(N)=O)C(=O)N[C@@H](CCC(N)=O)C(=O)N[C@@H](CCCNC(=N)N)C(=O)O)[C@@H](C)O,T cell response [SFC],"[1]; human donors, allele A*6801",40 SFC
CC(C)C[C@H](NC(=O)CNC(=O)[C@H](CCC(=O)O)NC(=O)CN)C(=O)N[C@@H](Cc1c[nH]cn1)C(=O)N[C@@H](CCCCN)C(=O)N[C@@H](CC(C)C)C(=O)NCC(=O)N[C@@H](Cc1ccc(O)cc1)C(=O)O,T cell response [SFC],"[1]; human donors, allele B*4403",248 SFC
CC[C@H](C)[C@H](N)C(=O)N[C@@H](CS)C(=O)N[C@@H](CO)C(=O)N[C@@H](C)C(=O)N[C@H](C(=O)N1CCC[C@H]1C(=O)N[C@H](C(=O)N[C@@H](Cc1c[nH]cn1)C(=O)N[C@@H](Cc1c[nH]c2ccccc12)C(=O)O)C(C)C)C(C)C,T cell response [SFC],"[1]; human donors, allele B*5801",305 SFC
CC[C@H](C)[C@H](NC(=O)[C@H](C)NC(=O)[C@H](CCCNC(=N)N)NC(=O)[C@H](CO)NC(=O)CNC(=O)[C@@H](N)CCCCN)C(=O)N[C@@H](Cc1c[nH]c2ccccc12)C(=O)N[C@@H](Cc1ccc(O)cc1)C(=O)N[C@@H](CCSC)C(=O)N[C@@H](Cc1c[nH]c2ccccc12)C(=O)O,T cell response [SFC],"[1]; human donors, allele B*5801",335 SFC
CC(C)C[C@H](NC(=O)[C@H](CCCNC(=N)N)NC(=O)[C@@H]1CCCN1C(=O)[C@@H](N)CCCCN)C(=O)N[C@@H](CS)C(=O)N[C@H](C(=O)N[C@@H](CCCNC(=N)N)C(=O)N[C@@H](CCC(=O)O)C(=O)N[C@@H](CCC(=O)O)C(=O)N[C@@H](Cc1ccccc1)C(=O)O)[C@@H](C)O,T cell response [SFC],"[1]; human donors, allele B*0702",48 SFC
CC[C@H](C)[C@H](NC(=O)[C@H](CC(=O)O)NC(=O)[C@H](CCCCN)NC(=O)[C@H](CCCNC(=N)N)NC(=O)[C@@H](NC(=O)[C@@H](N)CCCCN)C(C)C)C(=O)N[C@@H](CCC(N)=O)C(=O)N[C@@H](CCC(N)=O)C(=O)N[C@@H](Cc1c[nH]c2ccccc12)C(=O)O,T cell response [SFC],"[1]; human donors, allele B*5701",115 SFC
CC[C@H](C)[C@H](NC(=O)[C@H](CCC(=O)O)NC(=O)[C@@H](N)CCSC)C(=O)N[C@H](C(=O)N[C@@H](C)C(=O)N[C@@H](CCC(=O)O)C(=O)N[C@@H](Cc1c[nH]c2ccccc12)C(=O)N[C@@H](CC(C)C)C(=O)N[C@@H](Cc1c[nH]c2ccccc12)C(=O)O)[C@@H](C)O,T cell response [SFC],"[1]; human donors, allele B*5801",27 SFC
CC[C@H](C)[C@H](NC(=O)[C@H](CCSC)NC(=O)[C@H](CC(N)=O)NC(=O)[C@@H]1CCCN1C(=O)[C@@H](N)CC(N)=O)C(=O)N[C@@H](CC(=O)O)C(=O)N[C@@H](CCCCN)C(=O)N[C@H](C(=O)N1CCC[C@H]1C(=O)N[C@H](C(=O)O)C(C)C)[C@@H](C)O,T cell response [SFC],"[1]; human donors, allele B*0702",207 SFC
CC(C)C[C@H](NC(=O)[C@H](CCCNC(=N)N)NC(=O)[C@@H]1CCCN1C(=O)[C@@H](N)CC(N)=O)C(=O)N[C@@H](CS)C(=O)N[C@H](C(=O)N[C@@H](CCCNC(=N)N)C(=O)N[C@@H](CCC(=O)O)C(=O)N[C@@H](CCC(=O)O)C(=O)N[C@@H](Cc1ccccc1)C(=O)O)[C@@H](C)O,T cell response [SFC],"[1]; human donors, allele B*0702",25 SFC
CSCC[C@H](NC(=O)[C@H](Cc1c[nH]c2ccccc12)NC(=O)[C@@H]1CCCN1C(=O)[C@@H](N)CC(N)=O)C(=O)N[C@@H](CCC(=O)O)C(=O)N[C@@H](CC(=O)O)C(=O)N[C@@H](CCCCN)C(=O)N[C@H](C(=O)N1CCC[C@H]1C(=O)N[C@H](C(=O)O)C(C)C)[C@@H](C)O,T cell response [SFC],"[1]; human donors, allele B*0702",137 SFC
C[C@H](NC(=O)[C@H](Cc1c[nH]c2ccccc12)NC(=O)[C@@H](NC(=O)[C@H](CCCNC(=N)N)NC(=O)[C@H](Cc1ccc(O)cc1)NC(=O)[C@@H]1CCCN1C(=O)[C@H](CC(N)=O)NC(=O)[C@H](CCC(=O)O)NC(=O)[C@@H](N)CCC(N)=O)[C@@H](C)O)C(=O)N[C@@H](Cc1ccc(O)cc1)C(=O)O,T cell response [SFC],"[1]; human donors, allele B*4001",992 SFC
CC(C)[C@H](NC(=O)[C@H](C)NC(=O)[C@H](C)NC(=O)[C@@H](N)CCCNC(=N)N)C(=O)N[C@@H](CCC(=O)O)C(=O)N[C@@H](CC(=O)O)C(=O)N[C@@H](CCC(=O)O)C(=O)N[C@@H](CCC(=O)O)C(=O)N[C@@H](Cc1ccccc1)C(=O)O,T cell response [SFC],"[1]; human donors, allele B*5801",87 SFC
CC(C)C[C@H](NC(=O)[C@H](CO)NC(=O)CNC(=O)[C@H](CS)NC(=O)[C@H](Cc1c[nH]c2ccccc12)NC(=O)[C@H](CCC(N)=O)NC(=O)[C@H](CC(=O)O)NC(=O)[C@H](CCC(=O)O)NC(=O)[C@@H](N)CCCNC(=N)N)C(=O)O,T cell response [SFC],"[1]; human donors, allele B*4001",150 SFC
CC(C)C[C@H](NC(=O)[C@H](C)NC(=O)[C@H](CCC(=O)O)NC(=O)[C@H](Cc1ccccc1)NC(=O)[C@H](CCC(=O)O)NC(=O)[C@H](CC(C)C)NC(=O)[C@H](Cc1ccccc1)NC(=O)[C@@H](N)CCCNC(=N)N)C(=O)NCC(=O)N[C@@H](Cc1ccccc1)C(=O)O,T cell response [SFC],"[1]; human donors, allele A*2402",37 SFC
CC[C@H](C)[C@H](NC(=O)CNC(=O)[C@H](CCC(=O)O)NC(=O)CNC(=O)[C@H](CCC(=O)O)NC(=O)[C@H](CCSC)NC(=O)[C@H](CCC(N)=O)NC(=O)[C@@H](N)CCCNC(=N)N)C(=O)N[C@@H](Cc1ccccc1)C(=O)O,T cell response [SFC],"[1]; human donors, allele B*1501",583 SFC
CSCC[C@H](NC(=O)[C@H](CCC(N)=O)NC(=O)[C@@H](N)CCCNC(=N)N)C(=O)N[C@@H](CCC(=O)O)C(=O)NCC(=O)N[C@@H](CCC(=O)O)C(=O)NCC(=O)N[C@H](C(=O)N[C@@H](CC(C)C)C(=O)O)C(C)C,T cell response [SFC],"[1]; human donors, allele B*1501",382 SFC
CSCC[C@H](NC(=O)[C@H](CCCCN)NC(=O)[C@H](CC(C)C)NC(=O)[C@@H](NC(=O)[C@@H](N)CCCNC(=N)N)C(C)C)C(=O)N[C@H](C(=O)N[C@@H](CCC(=O)O)C(=O)N1CCC[C@H]1C(=O)N[C@@H](Cc1c[nH]c2ccccc12)C(=O)O)C(C)C,T cell response [SFC],"[1]; human donors, allele B*5801",643 SFC
CC(C)[C@H](NC(=O)[C@H](CCCNC(=N)N)NC(=O)[C@H](CCC(N)=O)NC(=O)[C@H](CCC(N)=O)NC(=O)CNC(=O)[C@H](Cc1ccccc1)NC(=O)[C@@H]1CCCN1C(=O)[C@@H](N)[C@@H](C)O)C(=O)N[C@@H](Cc1ccccc1)C(=O)O,T cell response [SFC],"[1]; human donors, allele B*3501",48 SFC
CC[C@H](C)[C@H](NC(=O)[C@@H](NC(=O)[C@H](CC(=O)O)NC(=O)[C@H](CCSC)NC(=O)[C@@H](NC(=O)[C@H](C)NC(=O)CNC(=O)[C@H](CCCCN)NC(=O)[C@@H]1CCCN1C(=O)[C@@H](N)[C@@H](C)O)C(C)C)[C@@H](C)CC)C(=O)O,T cell response [SFC],"[1]; human donors, allele B*0702",422 SFC
CC[C@H](C)[C@H](NC(=O)[C@@H](NC(=O)[C@H](CC(=O)O)NC(=O)[C@H](CCSC)NC(=O)[C@@H](NC(=O)[C@@H](NC(=O)CNC(=O)[C@H](CCCNC(=N)N)NC(=O)[C@@H]1CCCN1C(=O)[C@@H](N)[C@@H](C)O)[C@@H](C)O)C(C)C)[C@@H](C)CC)C(=O)O,T cell response [SFC],"[1]; human donors, allele B*0702",505 SFC
CC(C)C[C@H](NC(=O)[C@H](Cc1ccc(O)cc1)NC(=O)[C@@H]1CCCN1C(=O)[C@@H](N)C(C)C)C(=O)NCC(=O)N[C@@H](CCCCN)C(=O)N[C@@H](CCCNC(=N)N)C(=O)N[C@@H](CCC(=O)O)C(=O)N[C@@H](CC(=O)O)C(=O)N[C@@H](CCC(N)=O)C(=O)O,T cell response [SFC],"[1]; human donors, allele B*0702",425 SFC
CC(C)[C@H](NC(=O)[C@H](CCC(=O)O)NC(=O)[C@H](Cc1ccc(O)cc1)NC(=O)[C@H](CO)NC(=O)CNC(=O)[C@H](Cc1c[nH]cn1)NC(=O)[C@H](Cc1ccc(O)cc1)NC(=O)[C@H](C)NC(=O)[C@@H](N)Cc1c[nH]c2ccccc12)C(=O)O,T cell response [SFC],"[1]; human donors, allele B*5101",97 SFC
CSCC[C@H](NC(=O)[C@H](CC(C)C)NC(=O)[C@@H](NC(=O)[C@H](CCC(=O)O)NC(=O)[C@@H](N)CC(C)C)[C@@H](C)O)C(=O)N[C@@H](CC(C)C)C(=O)N[C@H](C(=O)N[C@@H](C)C(=O)N[C@@H](CC(C)C)C(=O)O)C(C)C [LETLMLVAL],T cell response [SFC],[1]; [2],112 SFC
CC[C@H](C)[C@H](NC(=O)CNC(=O)[C@@H](NC(=O)[C@@H](NC(=O)[C@H](C)NC(=O)[C@H](CCSC)NC(=O)[C@@H](N)CCSC)[C@@H](C)O)[C@@H](C)CC)C(=O)N[C@@H](C)C(=O)N[C@@H](CC(C)C)C(=O)O [MMATIGIAL],T cell response [SFC],"[1]; allele B*3501, Sri Lankan donors",38 SFC
CSCC[C@H](N)C(=O)N[C@H](C(=O)N[C@@H](CCC(N)=O)C(=O)N[C@@H](CCCCN)C(=O)N[C@@H](C)C(=O)N[C@@H](CCCNC(=N)N)C(=O)N[C@@H](CC(N)=O)C(=O)N[C@@H](C)C(=O)N[C@@H](CC(C)C)C(=O)O)[C@@H](C)O [MTQKARNAL],T cell response [SFC],"[1]; allele B*0702, Sri Lankan donors",263 SFC
CSCC[C@H](NC(=O)[C@H](C)NC(=O)CNC(=O)[C@H](CCC(=O)O)NC(=O)[C@@H](N)CCC(N)=O)C(=O)N[C@@H](Cc1c[nH]cn1)C(=O)N[C@@H](CO)C(=O)N[C@@H](C)C(=O)N[C@@H](CC(C)C)C(=O)O [QEGAMHSAL],T cell response [SFC],[1]; [2],22 SFC
CSCC[C@H](NC(=O)[C@H](C)NC(=O)CNC(=O)[C@H](CCC(=O)O)NC(=O)[C@@H](N)CCC(N)=O)C(=O)N[C@@H](Cc1c[nH]cn1)C(=O)N[C@H](C(=O)N[C@@H](C)C(=O)N[C@@H](CC(C)C)C(=O)O)[C@@H](C)O [QEGAMHTAL],T cell response [SFC],[1]; [2],120 SFC
"NS2A8-15: dominant DENV-2 derived H-2^b peptide, CD8+ T cell epitope (Yauch et al. 2009) (FSLGVLGM)",protective effect of peptide immunization after depletion of CD8+ T cells,DENV2,abrogated the protective effect

# Where two headings read alike, the source gives them in different places.
